{"sequences": {"note": "Amino acid sequences for entries named in this document (tags omitted). A change or cut given only in a name is not applied to a line headed by its entry.", "UniProt P56817": "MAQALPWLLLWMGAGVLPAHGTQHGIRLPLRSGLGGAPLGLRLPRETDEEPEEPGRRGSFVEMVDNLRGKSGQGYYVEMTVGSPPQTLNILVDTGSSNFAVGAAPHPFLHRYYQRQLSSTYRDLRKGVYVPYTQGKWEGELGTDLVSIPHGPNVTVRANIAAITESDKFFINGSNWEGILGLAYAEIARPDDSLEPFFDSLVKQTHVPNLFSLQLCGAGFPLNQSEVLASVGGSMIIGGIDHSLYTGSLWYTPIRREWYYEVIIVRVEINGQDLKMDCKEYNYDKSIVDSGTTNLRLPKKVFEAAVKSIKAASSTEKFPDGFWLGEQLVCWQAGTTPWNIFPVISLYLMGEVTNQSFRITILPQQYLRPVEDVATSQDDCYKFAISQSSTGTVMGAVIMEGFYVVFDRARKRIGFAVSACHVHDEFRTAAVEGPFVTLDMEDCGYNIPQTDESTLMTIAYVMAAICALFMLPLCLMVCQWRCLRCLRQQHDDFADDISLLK"}, "source": "ChEMBL document CHEMBL4725250", "about": "“The development of a structurally distinct series of BACE1 inhibitors via the (Z)-fluoro-olefin amide bioisosteric replacement” (Bioorg Med Chem Lett, 2020)", "key": {"[1]": {"biological_target": "T1, Beta-secretase 1 (Homo sapiens, UniProt P56817)"}, "[2]": {"biological_target": "T1, Beta-secretase 1", "remark": "listed apart in the source"}}, "data": [{"smiles": "CN(C)C(=O)[C@]12C[C@H]1[C@@](C)(c1cc(/C=C(\\F)c3ccc(C#N)cn3)ccc1F)N=C(N)S2", "values": [{"measurement": "IC50", "setting": "[1]", "value": 2, "unit": "nM"}, {"measurement": "IC50", "setting": "[2]", "value": 3, "unit": "nM"}]}]}
